Reference: US5196515A, “Thiolactone bifunctional chelating agents for diagnostic and therapeutic products” (The Johns Hopkins University, priority 1991, dated 1993)

How the values were obtained:
[1] = Biodistribution of radiolabeled HSA in mice; type: in vivo, male CD-1 mice; conditions: for blood retention / clearance of label in blood: FIG. 2A, in words
Excerpt: In vivo evaluation of labeled HSA is simplified because the level of radioactivity in the blood is a measure of stability and viability. Any loss of the Tc label or denaturation of the labeled protein will be observed as low blood retention and abnormal accumulation of radioactivity in organs such as stomach, kidney, or liver (Pettit et al., 1978). Biodistribution of the Tc-99m labeled HSA products were compared with I-125 labeled HSA in male CD-1 mice. The behavior of the Tc-99m-nDADT:HSA (n=1-6) were similar in these in vivo studies and are typified by Tc-99m-3DADT:HSA in FIGS. 2A and 2B. […] The small differences in clearance between the Tc-99m-nDADT:HSA and I-125-HSA at the longer time points may be due to differences in the handling of the respective labels once significant metabolism of the protein has occurred.
The stability of label and the viability of the ^99m Tc-labeled HSA products in vivo were assessed by studying the biodistribution of [^99m Tc]-labeled HSA and [^99m Tc]nDADT:HSA (N=1, 2, 3, and 6) as compared to [^125 I]-labeled HSA in mice. The temporal distribution of [^99m Tc]- and [^125 I]-radioactivity in blood stomach, liver, kidneys, and intestines of male CD-1 mice were determined as follows: HPLC purified [^125 I]-labeled HSA, [^99m Tc]-labeled HSA and [^99m Tc]nDADT:HSA (n=1, 2, 3, and 6) were approximately diluted to 10 μCi/ml. Aliquots of the diluted samples (0.2 ml, 2 μCi) were injected through the tail vein. At 5, 15, 30, 60 and 180 min postinjection, groups of six mice were killed by cervical dislocation and the organs of interest were removed by dissection and weighed. Tissue radioactivity was determined using an automated scintillation well counter with a 100 to 180 KeV window. The per cent injected does per gram of wet tissue per organ was calculated by comparison to standard dilutions of the injected dose and corrected for decay.

[2] = In vitro stability of Tc-99m labeled HSA, HPLC purified products incubated at room temperature; type: physicochemical; conditions: 3.5 hours incubation
Method: As a measure of stability of the labeled HSA molecules, HPLC purified products were incubated at room temperature. For HSA labeled without the use of the BCA, hydrolyzed reduced Tc-99m and [TcO4 ]^- were formed (FIG. 1). These decomposition products account for 66% of the label at 3.5 hours incubation.

[3] = Blood retention of radiolabeled HSA in rabbits; type: in vivo, Female New Zealand White rabbits; conditions: rabbit, up to six hours postinjection, FIG. 3
Method: Three rabbits were injected through the left ear vein with a mixture of HPLC purified [^125 I]-labeled HSA and [^99m Tc]3DADT-HSA (50 μCi each). At 5, 15, 30, 60, 180 and 360 min postinjection, 0.5 ml blood samples were drawn from the contralateral ear. The technetium-99m radioactivity in the samples was measured using an automated scintillation well counter with a 100 to 180 KeV window as described above. After a three day, 12 half-lives, decay period for the [^99m Tc]-radioactivity, the [^125 I]-radioactivity in the samples was measured using the automated scintillation well counter with a 20 to 80 KeV window.
Male CD-1 mice (average weight 25 g) were purchased from the Charles River Laboratories. Female New Zealand White rabbits (average weight 20 kg) were purchased from Bunnyville.

Substance	blood retention / clearance of label in blood [1]	stomach uptake ([1]; by 30 min, FIG. 2B)	decomposition products (share of the label) [2]	blood retention, Tc-99m-3DADT:HSA compared to I-125-HSA [3]	total stomach accumulation ([1]; FIG. 2B)
Tc-99m-HSA (unmodified): HSA labeled with Tc-99m without the use of the BCA	lower initial retention and faster clearance of the label in blood	up to 20 % of the injected dose	66%	–	–
Tc-99m-3DADT:HSA: Tc-99m labeled HSA with an average of 3 DADT chelating groups	–	–	–	practically no difference	–
I-125-HSA: I-125 labeled HSA [Example I-125-HSA]	early retention of the label in the blood was similar	–	–	–	< 4.5 % ID/organ
